Assay results published in patent publication US4797280A, “Antibiotics produced by Kibdelosporangium aridum Shearer gen. nov., sp. nov. ATCC 39323” (SmithKline Beckman Corporation, priority 1986, dated 1989).
≈ marks a conversion by molar mass, not a printed value.

What was measured:
C. difficile SK & F 3092 = format: cell-based; details: Anaerobes
C. difficile SK & F 3091 = format: cell-based; details: Anaerobes

Row | SMILES | MIC (C. difficile SK & F 3092) [µg/mL] | MIC (C. difficile SK & F 3091) [µg/mL]
1 | CN[C@H]1C(=O)N[C@H]2C(=O)N[C@H](C(=O)N[C@H]3C(=O)N[C@H]4C(=O)N[C@H](C(=O)N[C@H](C(=O)O)c5cc(O)cc(O[C@H]6O[C@H](CO)[C@@H](O)[C@H](O)[C@@H]6O)c5-c5cc4ccc5O)[C@H](O)c4cc(Cl)c(c(Cl)c4)Oc4cc3cc(c4O[C@@H]3O[C@H](C(=O)O)[C@@H](O)[C@H](O)[C@H]3NC(=O)CCCCCCCC(C)C)Oc3ccc(cc3Cl)[C@H]2O)c2cc(cc(O)c2Cl)Oc2cc1ccc2O [AAD 216B] | 0.25 (≈ 0.139 µM) | 0.25 (≈ 0.139 µM)
2 | CN[C@H]1C(=O)N[C@H]2C(=O)N[C@H](C(=O)N[C@H]3C(=O)N[C@H]4C(=O)N[C@H](C(=O)N[C@H](C(=O)O)c5cc(O)cc(O[C@H]6O[C@H](CO)[C@@H](O)[C@H](O)[C@@H]6O)c5-c5cc4ccc5O)[C@H](O)c4cc(Cl)c(c(Cl)c4)Oc4cc3cc(c4O[C@@H]3O[C@H](C(=O)O)[C@@H](O)[C@H](O)[C@H]3NC(=O)CCCCCCCCC(C)C)Oc3ccc(cc3Cl)[C@H]2O)c2cc(cc(O)c2Cl)Oc2cc1ccc2O | 0.25 (≈ 0.138 µM) | 0.031 (≈ 0.0171 µM)
3 | CCCCCCCCCC(=O)N[C@H]1[C@H](Oc2c3cc4cc2Oc2c(Cl)cc(cc2Cl)[C@@H](O)[C@@H]2NC(=O)[C@H](NC(=O)[C@@H]4NC(=O)[C@H]4NC(=O)[C@H](NC(=O)[C@H](NC)c5ccc(O)c(c5)Oc5cc(O)c(Cl)c4c5)[C@H](O)c4ccc(c(Cl)c4)O3)c3ccc(O)c(c3)-c3c(O[C@H]4O[C@H](CO)[C@@H](O)[C@H](O)[C@@H]4O)cc(O)cc3[C@@H](C(=O)O)NC2=O)O[C@H](C(=O)O)[C@@H](O)[C@@H]1O [AAD 216A] | 0.125 (≈ 0.0699 µM) | 0.125 to 0.25
